Test results taken from BindingDB's records for 26145820.
“And” between values parts separate entries of the source, which are not always exact repeats. Equal entries are not always repeated.

By UniProt entry, the sequences of proteins in these tests, tags left out. Residues count along the entry.
UniProt P40881, 35-247 limits assumed: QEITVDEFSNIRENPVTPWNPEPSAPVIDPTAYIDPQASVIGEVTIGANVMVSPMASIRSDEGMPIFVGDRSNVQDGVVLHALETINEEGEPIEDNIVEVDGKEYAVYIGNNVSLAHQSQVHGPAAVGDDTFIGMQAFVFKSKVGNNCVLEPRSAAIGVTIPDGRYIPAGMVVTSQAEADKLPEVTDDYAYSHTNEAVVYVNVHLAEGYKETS

Columns and labels:
[1] = biological target: Carbonic anhydrase 2 (Homo sapiens, UniProt P00918); assay: Inhibition of human CA2 after 15 mins by stopped-flow/Co2 hydration assay
[2] = biological target: Carbonic anhydrase (Methanosarcina thermophila (strain ATCC 43570 / DSM 1825 / OCM 12 / VKM B-1830 / TM-1), UniProt P40881); assay: Inhibition of archaeon Methanosarcina thermophila gamma-CA after 15 mins by stopped-flow/Co2 hydration assay

| Compound | Ki [1] | Ki [2] [mM] |
| --- | --- | --- |
| [Na+] | 26 mM and 63 mM | – |
| [N-]=[N+]=[N-] | – | 5.8 |
